# Assay results as given in ChEMBL document CHEMBL1133626, “GRid-INdependent descriptors (GRIND): a novel class of alignment-independent three-dimensional molecular descriptors” (J Med Chem, 2000).
# Assays:
# [1] = Binding affinity of the Corticosteroid-Binding Globulin Receptor with cortisone
# [2] = Binding affinity of the Corticosteroid-Binding Globulin Receptor with aldosterone
Log K [1],Log K [2],SMILES
6.89,–,O=C1NC(=O)[C@@]2(N1)O[C@@H](CO)[C@@H](O)[C@H](O)[C@@H]2O
–,6.28,OC[C@H]1OC(O)[C@H](O)[C@@H](O)[C@@H]1O (some centres not stated)
